Measurements published in patent US20160235824A1, “Compositions and Methods for Increasing the Half-Life of Factor XA” (THE CHILDREN'S HOSPITAL OF PHILADELPHIA, priority 2013, published 2016).
Where two headings read alike, the source gives them in different places.

Chains of the proteins cited; added tags and fusions are not shown. Residues count along the entry.
UniProt P00742, 41-179 limits assumed: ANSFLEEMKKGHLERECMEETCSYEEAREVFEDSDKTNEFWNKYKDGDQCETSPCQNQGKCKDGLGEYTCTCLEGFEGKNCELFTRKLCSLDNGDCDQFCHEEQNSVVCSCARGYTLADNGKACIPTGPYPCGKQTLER
UniProt P00742, 235-488 limits assumed: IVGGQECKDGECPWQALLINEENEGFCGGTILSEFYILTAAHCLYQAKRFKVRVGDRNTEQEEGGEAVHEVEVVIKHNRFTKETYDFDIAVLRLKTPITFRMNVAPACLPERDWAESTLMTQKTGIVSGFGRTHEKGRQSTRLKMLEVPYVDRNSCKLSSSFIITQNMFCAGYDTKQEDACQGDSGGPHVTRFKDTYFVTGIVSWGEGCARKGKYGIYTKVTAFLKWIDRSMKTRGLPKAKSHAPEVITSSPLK

How the values were obtained:
[1] = biological target: FXa-antithrombin III (FXa-ATIII) complex (Homo sapiens, UniProt P00742); experiment: FXa-antithrombin III complex formation in FX deficient plasma (ELISA); format: biochemical
Description: FIG. 5 provides a graph of FXa-antithrombin III (FXa-ATIII) complex formation as a function of incubation time. […] Samples were incubated for the indicated time and then all residual FXa was quenched by addition of 50 μM biotinylated glutamyl-glycinyl-arginyl-chloromethylketone (BEGRCK), which irreversibly modifies the active site of FXa and prevents further reaction with antithrombin III. FXa-ATIII levels were then measured with an enzyme-linked immunosorbent assay (ELISA) using an anti-FX capture antibody and an HRP-anti-ATIII detection antibody.

[2] = cited from earlier work
[3] = human

**Q.** What does the source list for “WT FXa: wild-type activated coagulation Factor X (FXa), serine protease”?
**A.** time until nearly all added FXa is incorporated in FXa-ATIII complex ([1]; 25 nM WT FXa in FX-deficient plasma, no rivaroxaban): ≤ 5 min; fraction of added FXa inactivated by ATIII ([1]; 25 nM WT FXa, 1 μM rivaroxaban, after 90 minutes): about half; half-life in plasma [2]: approximately 1 minute; half-life in plasma [3]: 4.6 min
